## CycPeptMPDB entries from one study

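Lipid, pH, incubation time, direction and concentration are not recorded in the data file. The list need not hold all peptides of the study. Peptides that the database sets to -10, its floor, are left out.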

PAMPA is the parallel artificial membrane permeability assay, which has no cells and reads passive diffusion. P is given in units of 10^-6 cm/s (from log10 values with two decimals); larger means faster passage.

SMILES,PAMPA (10^-6 cm/s)
CC(C)C[C@@H]1NC(=O)[C@H]2CCCN2C(=O)[C@H](CC(C)C)NC(=O)[C@@H](CC(C)C)NC(=O)[C@H](C)NC(=O)[C@H](Cc2ccccc2)NC1=O,5.8
CC(C)C[C@@H]1NC(=O)CN(Cc2ccccc2)C(=O)C[C@H](Cc2ccccc2)NC(=O)[C@@H]2CCCN2C(=O)[C@H](Cc2ccccc2)NC(=O)[C@@H](CC(C)C)N(C)C(=O)[C@H]2CCCN2C1=O,2.3
CC(C)C[C@@H]1NC(=O)[C@H](C)N(C)C(=O)[C@H]2CCCN2C(=O)[C@H](Cc2ccccc2)NC(=O)[C@H](CC(C)C)N(C)C(=O)[C@@H]2CCCN2C(=O)[C@H](CC(C)C)NC1=O,1.4
CC(C)C[C@H]1C(=O)N[C@@H](Cc2ccccc2)CC(=O)N2CCC[C@H]2C(=O)N(C)[C@@H](CC(C)C)C(=O)N[C@@H](Cc2ccccc2)C(=O)N2CCC[C@H]2C(=O)N(C)[C@H](C)C(=O)N1C,3.6
CC(C)C[C@@H]1NC(=O)CN(Cc2ccccc2)C(=O)[C@H](C)N(C)C(=O)[C@H]2CCCN2C(=O)[C@H](Cc2ccccc2)NC(=O)CN(Cc2ccccc2)C(=O)[C@H]2CCCN2C1=O,0.89
CC(C)C[C@H]1NC(=O)CN(Cc2ccccc2)C(=O)[C@@H](C)N(C)C(=O)[C@@H]2CCCN2C(=O)[C@H](Cc2ccccc2)NC(=O)[C@H](CC(C)C)N(C)C(=O)[C@@H]2CCCN2C1=O,6.3
CC(C)C[C@@H]1NC(=O)[C@@H]2CCCN2C(=O)[C@H](CC(C)C)N(C)C(=O)[C@@H](CC(C)C)NC(=O)C[C@H](Cc2ccccc2)NC(=O)[C@H](Cc2ccccc2)NC1=O,3.9
CCCN1CC(=O)N[C@@H](CC(C)C)C(=O)N(Cc2ccccc2)CC(=O)N2CCC[C@@H]2C(=O)N[C@H](CC(C)C)C(=O)N[C@@H](Cc2ccccc2)C(=O)N2CCC[C@H]2C1=O,0.22
CC(C)C[C@H]1NC(=O)[C@@H](C)NC(=O)[C@H]2CCCN2C(=O)[C@H](Cc2ccccc2)NC(=O)CN(Cc2ccccc2)C(=O)[C@@H]2CCCN2C(=O)[C@H](CC(C)C)N(C)C1=O,0.66
CC(C)C[C@@H]1NC(=O)C[C@H](Cc2ccccc2)NC(=O)[C@@H]2CCCN2C(=O)[C@H](Cc2ccccc2)NC(=O)[C@@H](CC(C)C)N(C)C(=O)[C@H]2CCCN2C(=O)[C@H](CC(C)C)N(C)C1=O,3.8
CC(C)C[C@@H]1NC(=O)[C@H](C)N(C)C(=O)[C@H]2CCCN2C(=O)[C@H](Cc2ccccc2)NC(=O)[C@@H](CC(C)C)NC(=O)[C@@H]2CCCN2C(=O)C[C@H](Cc2ccccc2)NC1=O,0.56
CC(C)C[C@@H]1NC(=O)[C@H](C)N(C)C(=O)[C@H]2CCCN2C(=O)[C@H](Cc2ccccc2)NC(=O)[C@H](CC(C)C)N(C)C(=O)[C@@H]2CCCN2C(=O)C[C@H](Cc2ccccc2)NC1=O,5.4
CCCN1CC(=O)N[C@H](CC(C)C)C(=O)N(C)[C@@H](CC(C)C)C(=O)N2CCC[C@@H]2C(=O)N(C)[C@@H](CC(C)C)C(=O)N[C@@H](Cc2ccccc2)C(=O)N2CCC[C@H]2C1=O,8.5
CC(C)C[C@H]1NC(=O)[C@@H]2CCCN2C(=O)CN(Cc2ccccc2)C(=O)[C@@H](CC(C)C)NC(=O)C[C@H](Cc2ccccc2)NC(=O)[C@H](Cc2ccccc2)NC1=O,2

Excerpt, the final 2 entries:

| SMILES | PAMPA (10^-6 cm/s) |
|---|---|
| CCCN1CC(=O)N[C@H](CC(C)C)C(=O)N(C)[C@@H](CC(C)C)C(=O)N2CCC[C@@H]2C(=O)N(C)[C@@H](CC(C)C)C(=O)N[C@@H](Cc2ccccc2)C(=O)N2CCC[C@H]2C1=O | 8.5 |
| CC(C)C[C@H]1NC(=O)[C@@H]2CCCN2C(=O)CN(Cc2ccccc2)C(=O)[C@@H](CC(C)C)NC(=O)C[C@H](Cc2ccccc2)NC(=O)[C@H](Cc2ccccc2)NC1=O | 2 |

Values of Townsend et al. 2020, doi:10.26434/chemrxiv.13335941.v1, as listed in CycPeptMPDB.